The text below walks through data of ChEMBL document CHEMBL5036320, “Discovery of Icenticaftor (QBW251), a Cystic Fibrosis Transmembrane Conductance Regulator Potentiator with Clinical Efficacy in Cystic Fibrosis and Chronic Obstructive Pulmonary Disease” (J Med Chem, 2021).

By UniProt entry, the sequences of proteins in these tests, tags left out. Chains listed by the source or under a name are the forms on record and can include a tag or linker.
UniProt P13569, as listed by the source: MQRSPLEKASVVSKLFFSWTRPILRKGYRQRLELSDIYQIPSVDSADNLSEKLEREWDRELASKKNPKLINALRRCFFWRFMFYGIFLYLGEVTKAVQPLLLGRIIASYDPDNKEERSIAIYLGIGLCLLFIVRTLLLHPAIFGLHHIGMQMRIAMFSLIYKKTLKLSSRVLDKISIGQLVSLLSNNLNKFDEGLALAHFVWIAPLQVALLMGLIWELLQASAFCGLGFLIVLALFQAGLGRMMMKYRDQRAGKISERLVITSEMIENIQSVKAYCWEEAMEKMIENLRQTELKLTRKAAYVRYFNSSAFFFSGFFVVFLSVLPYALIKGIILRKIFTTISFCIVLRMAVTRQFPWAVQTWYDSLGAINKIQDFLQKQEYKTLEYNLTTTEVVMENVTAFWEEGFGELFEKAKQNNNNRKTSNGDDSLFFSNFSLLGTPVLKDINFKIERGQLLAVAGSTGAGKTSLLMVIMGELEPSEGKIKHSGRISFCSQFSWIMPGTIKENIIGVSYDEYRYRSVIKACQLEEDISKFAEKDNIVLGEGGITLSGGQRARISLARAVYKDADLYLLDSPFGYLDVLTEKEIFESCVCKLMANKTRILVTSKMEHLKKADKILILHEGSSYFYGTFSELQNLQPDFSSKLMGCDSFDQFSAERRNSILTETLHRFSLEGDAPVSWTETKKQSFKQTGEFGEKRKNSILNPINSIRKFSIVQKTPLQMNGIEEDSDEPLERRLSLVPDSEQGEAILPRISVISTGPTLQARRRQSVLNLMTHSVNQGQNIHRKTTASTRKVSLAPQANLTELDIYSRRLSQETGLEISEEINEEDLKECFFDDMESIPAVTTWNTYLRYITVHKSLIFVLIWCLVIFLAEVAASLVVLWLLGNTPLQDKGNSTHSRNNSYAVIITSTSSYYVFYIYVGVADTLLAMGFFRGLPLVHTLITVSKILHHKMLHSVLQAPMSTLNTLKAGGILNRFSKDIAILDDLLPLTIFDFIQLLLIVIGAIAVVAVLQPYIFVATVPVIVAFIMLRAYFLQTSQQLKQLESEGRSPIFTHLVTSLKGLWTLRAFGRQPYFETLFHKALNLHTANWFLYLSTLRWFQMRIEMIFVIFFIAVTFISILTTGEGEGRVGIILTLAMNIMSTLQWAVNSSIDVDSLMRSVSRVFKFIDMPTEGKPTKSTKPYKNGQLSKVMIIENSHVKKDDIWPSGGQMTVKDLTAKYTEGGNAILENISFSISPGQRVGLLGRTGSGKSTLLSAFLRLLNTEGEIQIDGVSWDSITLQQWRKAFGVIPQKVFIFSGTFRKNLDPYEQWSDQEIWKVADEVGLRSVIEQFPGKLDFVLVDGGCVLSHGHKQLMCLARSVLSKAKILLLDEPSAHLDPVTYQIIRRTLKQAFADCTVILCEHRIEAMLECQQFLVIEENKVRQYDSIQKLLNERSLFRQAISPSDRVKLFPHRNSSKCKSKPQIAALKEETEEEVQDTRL
UniProt P13569, whole entry: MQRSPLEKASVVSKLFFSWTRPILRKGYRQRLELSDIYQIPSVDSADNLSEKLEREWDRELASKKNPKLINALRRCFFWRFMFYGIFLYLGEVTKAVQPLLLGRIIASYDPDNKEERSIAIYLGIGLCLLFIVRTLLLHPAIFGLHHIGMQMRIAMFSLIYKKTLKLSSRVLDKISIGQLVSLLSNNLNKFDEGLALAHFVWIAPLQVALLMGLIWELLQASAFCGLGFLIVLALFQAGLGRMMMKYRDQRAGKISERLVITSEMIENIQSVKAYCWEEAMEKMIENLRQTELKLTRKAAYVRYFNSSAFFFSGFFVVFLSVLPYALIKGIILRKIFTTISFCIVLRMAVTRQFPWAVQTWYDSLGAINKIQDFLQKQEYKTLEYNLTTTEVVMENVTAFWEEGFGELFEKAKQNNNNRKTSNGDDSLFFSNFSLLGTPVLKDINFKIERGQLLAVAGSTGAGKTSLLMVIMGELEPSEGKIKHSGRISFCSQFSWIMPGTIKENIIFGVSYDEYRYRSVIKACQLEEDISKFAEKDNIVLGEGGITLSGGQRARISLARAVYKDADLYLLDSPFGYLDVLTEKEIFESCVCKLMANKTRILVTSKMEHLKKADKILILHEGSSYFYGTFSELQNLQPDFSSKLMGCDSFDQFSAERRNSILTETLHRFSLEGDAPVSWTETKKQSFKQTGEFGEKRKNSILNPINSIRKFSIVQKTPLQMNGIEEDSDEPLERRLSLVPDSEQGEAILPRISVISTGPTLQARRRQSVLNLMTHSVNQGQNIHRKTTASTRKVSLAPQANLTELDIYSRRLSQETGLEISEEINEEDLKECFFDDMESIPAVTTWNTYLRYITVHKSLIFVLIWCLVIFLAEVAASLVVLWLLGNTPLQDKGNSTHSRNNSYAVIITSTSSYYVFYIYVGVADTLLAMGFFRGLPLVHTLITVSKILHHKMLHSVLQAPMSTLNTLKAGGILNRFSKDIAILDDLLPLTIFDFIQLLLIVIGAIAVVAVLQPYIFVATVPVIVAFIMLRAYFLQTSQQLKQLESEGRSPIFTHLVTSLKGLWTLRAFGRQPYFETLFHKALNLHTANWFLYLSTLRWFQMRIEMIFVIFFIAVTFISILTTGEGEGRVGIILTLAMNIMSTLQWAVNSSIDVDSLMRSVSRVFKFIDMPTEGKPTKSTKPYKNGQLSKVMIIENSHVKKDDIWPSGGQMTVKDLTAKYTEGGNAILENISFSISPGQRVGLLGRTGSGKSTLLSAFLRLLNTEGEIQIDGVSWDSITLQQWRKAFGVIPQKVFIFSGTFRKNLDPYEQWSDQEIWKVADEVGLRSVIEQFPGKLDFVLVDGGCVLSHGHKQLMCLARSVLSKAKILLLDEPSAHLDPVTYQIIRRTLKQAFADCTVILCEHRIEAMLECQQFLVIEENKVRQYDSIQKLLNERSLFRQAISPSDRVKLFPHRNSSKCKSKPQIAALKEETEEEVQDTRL

Holding throughout (format): cell-based
The target of assay [1] is T1, Cystic fibrosis transmembrane conductance regulator (Homo sapiens, UniProt P13569, F508DEL). Briefly: Potentiation of CFTR F508del mutant (unknown origin) expressed in FRT cells assessed as chloride transport by measuring membrane potential in presence of forskolin.
Assay [2] addresses T1, Cystic fibrosis transmembrane conductance regulator. Briefly: Potentiation of CFTR F508del mutant (unknown origin) expressed in CHO cells assessed as chloride transport by measuring membrane potential incubated for 5 to 30 mins in presence of forskolin by Quattro assay.
Assay [3] shares this target. The experiment in a line: Potentiation of CFTR F508del mutant (unknown origin) expressed in CHO cells assessed as chloride transport by measuring membrane potential preincubated for 5 mins followed by forskolin addition by FLIPR assay.
The target in assay [4] is Cystic fibrosis transmembrane conductance regulator (Homo sapiens, UniProt P13569). The experiment in a line: Potentiation of wild-type CFTR (unknown origin) expressed in FRT cells assessed as chloride transport by measuring membrane potential in presence of forskolin.

Structures are written as SMILES.

Take `O=c1c(-c2ccc(O)cc2)coc2cc(O)cc(O)c12` [GENISTEIN]: the EC50 (as a rule, the concentration giving half of the maximal effect) turned out to be 6.17 µM in assay [1], 8.48 µM in assay [2], 8.2 µM in assay [3] and 14.2 µM in assay [4].
